system: GST-Bcl-2; test: TR-FRET binding assay, Bcl-2; details: TR-FRET Ki values
Procedure: Tb-anti-GST antibody was purchased from Invitrogen (Catalog No. PV4216).
Representative compounds were serially diluted in dimethyl sulfoxide (DMSO) starting at 50 μM (2× starting concentration; 10% DMSO) and 10 μL were transferred into a 384-well plate.
The samples were then mixed on a shaker for 1 minute and incubated for an additional 3 hours at room temperature. For each assay, the probe/antibody and protein/probe/antibody were included on each assay plate as negative and positive controls, respectively. Fluorescence was measured on the Envision (Perkin Elmer) using a 340/35 nm excitation filter and 520/525 (F-Bak peptide) and 495/510 nm (Tb-labeled anti-Histidine antibody) emission filters.
The inhibition constant (Ki) is the dissociation constant of an enzyme-inhibitor complex or a protein/small molecule complex, wherein the small molecule is inhibiting binding of one protein to another protein or peptide. […] Inhibition constants were determined using Wang's equation (Wang Z-X., An Exact Mathematical Expression For Describing Competitive Binding Of Two Different Ligands To A Protein Molecule. FEBS Lett. 1995, 360:111-4).

SMILES	Binding selectivity ratio (Bcl-XL Ki/Bcl-2 Ki)
CC1(C)CCC(CN2CCN(c3ccc(C(=O)NS(=O)(=O)c4cnc(OCC5(F)CCOCC5)c(C#N)c4)c(Oc4cccc5[nH]ncc45)c3)CC2)=C(c2ccc(Cl)cc2)C1 [EXAMPLE 406, 4-(4-{[2-(4-chlorophenyl)-4,4-dimethylcyclohex-1-en-1-yl]methyl}piperazin-1-yl)-N-({5-cyano-6-[(4-fluorotetrahydro-2H-pyran-4-yl)methoxy]pyridin-3-yl}sulfonyl)-2-(1H-indazol-4-yloxy)benzamide]	1264
CC1(C)CCC(CN2CCN(c3ccc(C(=O)NS(=O)(=O)c4cnc(OCC5(F)CCOCC5)c(C(F)(F)F)c4)c(Oc4cccc5[nH]ncc45)c3)CC2)=C(c2ccc(Cl)cc2)C1 [EXAMPLE 410, 4-(4-{[2-(4-chlorophenyl)-4,4-dimethylcyclohex-1-en-1-yl]methyl}piperazin-1-yl)-N-{[6-[(4-fluorotetrahydro-2H-pyran-4-yl)methoxy]-5-(trifluoromethyl)pyridin-3-yl]sulfonyl}-2-(1H-indazol-4-yloxy)benzamide]	1839
CO[C@H]1CC[C@H](COc2ncc(S(=O)(=O)NC(=O)c3ccc(N4CCN(CC5=C(c6ccc(Cl)cc6)CC(C)(C)CC5)CC4)cc3Oc3cccc4[nH]ncc34)cc2Cl)CC1 [EXAMPLE 414, Trans-N-({5-chloro-6-[(4-methoxycyclohexyl)methoxy]pyridin-3-yl}sulfonyl)-4-(4-{[2-(4-chlorophenyl)-4,4-dimethylcyclohex-1-en-1-yl]methyl}piperazin-1-yl)-2-(1H-indazol-4-yloxy)benzamide]	13930.52218
CC1(C)CCC(CN2CCN(c3ccc(C(=O)NS(=O)(=O)c4cnc(OCC5(F)CCOCC5)c(F)c4)c(Oc4cccc5[nH]ncc45)c3)CC2)=C(c2ccc(Cl)cc2)C1 [EXAMPLE 416, 4-(4-{[2-(4-chlorophenyl)-4,4-dimethylcyclohex-1-en-1-yl]methyl}piperazin-1-yl)-N-({5-fluoro-6-[(4-fluorotetrahydro-2H-pyran-4-yl)methoxy]pyridin-3-yl}sulfonyl)-2-(1H-indazol-4-yloxy)benzamide]	2569
CC1(C)CCC(CN2CCN(c3ccc(C(=O)NS(=O)(=O)c4ccc(N[C@@H]5CCN(C(CF)CF)C5)c([N+](=O)[O-])c4)c(Oc4cccc5[nH]ncc45)c3)CC2)=C(c2ccc(Cl)cc2)C1 [EXAMPLE 435, 4-(4-{[2-(4-chlorophenyl)-4,4-dimethylcyclohex-1-en-1-yl]methyl}piperazin-1-yl)-N-{[4-({(3R)-1-[2-fluoro-1-(fluoromethyl)ethyl]pyrrolidin-3-yl}amino)-3-nitrophenyl]sulfonyl}-2-(1H-indazol-4-yloxy)benzamide]	1935
CC1(C)CCC(CN2CCN(c3ccc(C(=O)NS(=O)(=O)c4ccc(NC5CCN(C6CC6)CC5)c([N+](=O)[O-])c4)c(Oc4cccc5[nH]ncc45)c3)CC2)=C(c2ccc(Cl)cc2)C1 [EXAMPLE 436, 4-(4-{[2-(4-chlorophenyl)-4,4-dimethylcyclohex-1-en-1-yl]methyl}piperazin-1-yl)-N-({4-[(1-cyclopropylpiperidin-4-yl)amino]-3-nitrophenyl}sulfonyl)-2-(1H-indazol-4-yloxy)benzamide]	590.9
CC1(C)CCC(CN2CCN(c3ccc(C(=O)NS(=O)(=O)c4ccc(OCC5COCCO5)c([N+](=O)[O-])c4)c(Oc4cccc5[nH]ncc45)c3)CC2)=C(c2ccc(Cl)cc2)C1 (stereo not drawn) [EXAMPLE 447, 4-(4-{[2-(4-chlorophenyl)-4,4-dimethylcyclohex-1-en-1-yl]methyl}piperazin-1-yl)-N-{[4-(1,4-dioxan-2-ylmethoxy)-3-nitrophenyl]sulfonyl}-2-(1H-indazol-4-yloxy)benzamide]	2373
CN1CCC(CNc2ccc(S(=O)(=O)NC(=O)c3ccc(N4CCN(CC5=C(c6ccc(Cl)cc6)CC(C)(C)CC5)CC4)cc3Oc3cccc4[nH]cnc34)cc2[N+](=O)[O-])CC1 [EXAMPLE 454, 2-(1H-benzimidazol-4-yloxy)-4-(4-{[2-(4-chlorophenyl)-4,4-dimethylcyclohex-1-en-1-yl]methyl}piperazin-1-yl)-N-[(4-{[(1-methylpiperidin-4-yl)methyl]amino}-3-nitrophenyl)sulfonyl]benzamide]	735.2
CC1(C)CCC(CN2CCN(c3ccc(C(=O)NS(=O)(=O)c4ccc(NC[C@H]5CC[C@H](C#N)CC5)c([N+](=O)[O-])c4)c(Oc4cccc5[nH]cnc45)c3)CC2)=C(c2ccc(Cl)cc2)C1 [EXAMPLE 462, Trans-2-(1H-benzimidazol-4-yloxy)-4-(4-{[2-(4-chlorophenyl)-4,4-dimethylcyclohex-1-en-1-yl]methyl}piperazin-1-yl)-N-[(4-{[(4-cyanocyclohexyl)methyl]amino}-3-nitrophenyl)sulfonyl]benzamide]	710.8

From patent publication US9125913B2, “Bcl-2-selective apoptosis-inducing agents for the treatment of cancer and immune diseases” (AbbVie Inc., priority 2008, dated 2015)
